# In article PMC5501184 (Journal of medicinal chemistry, 2017):
# Chains of the proteins cited; added tags and fusions are not shown.
# UniProt Q61327, whole entry: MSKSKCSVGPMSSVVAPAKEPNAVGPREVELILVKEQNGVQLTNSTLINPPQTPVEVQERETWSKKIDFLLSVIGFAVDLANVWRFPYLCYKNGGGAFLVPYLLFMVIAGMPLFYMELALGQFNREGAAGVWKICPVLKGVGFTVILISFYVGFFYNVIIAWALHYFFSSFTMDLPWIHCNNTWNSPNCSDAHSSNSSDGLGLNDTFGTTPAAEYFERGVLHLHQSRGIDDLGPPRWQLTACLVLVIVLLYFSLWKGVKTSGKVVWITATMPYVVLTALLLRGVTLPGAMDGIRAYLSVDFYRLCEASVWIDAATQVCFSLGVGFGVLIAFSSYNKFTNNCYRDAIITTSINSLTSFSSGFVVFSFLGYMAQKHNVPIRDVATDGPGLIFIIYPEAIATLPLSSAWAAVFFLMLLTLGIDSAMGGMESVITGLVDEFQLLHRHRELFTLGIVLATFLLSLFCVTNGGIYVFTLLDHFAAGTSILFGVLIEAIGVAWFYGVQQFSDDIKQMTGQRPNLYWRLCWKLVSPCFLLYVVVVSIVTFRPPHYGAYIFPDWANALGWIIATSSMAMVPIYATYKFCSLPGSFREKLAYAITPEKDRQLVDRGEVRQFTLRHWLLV
# Target: mDAT (Mus musculus, UniProt Q61327)
# Assay: [^3H]DA uptake by mDAT expressed in HEK-293 cells
# Assay type: cell-based
# Settings: read-out: [^3H]DA uptake, IC50 ± SEM; mDAT in HEK-293 cells
smiles,measurement,value
"OC1(c2ccc(Cl)cc2)c2ccccc2C2=NCCN21 (racemic) [compound 26, (±)-5-(4-chlorophenyl)-3,5-dihydro-2H-imidazo[2,1-a]isoindol-5-ol]",IC50,13 ± 2.6 nM
